Experimental data published in patent publication US9180118B2, “Thiadiazolidinone derivatives” (University of Rochester, priority 2006, dated 2015).

Columns and labels:
[1] = system: normal specimens (BM, CB, MPB)

O=C1N=C(O)SC1=Cc1ccc2c(c1)OC(F)(F)O2 [5-(2,2-Difluoro-benzo[1,3]dioxol-5-ylmethylene)-thiazolidine-2,4-dione]
Cytotoxic AML (primary AML specimens): No | Cytotoxic Normal [1]: No
